This assay has as its target T1, JAK3 (Homo sapiens, UniProt P52333).
T1 sequence (P52333 1-1124): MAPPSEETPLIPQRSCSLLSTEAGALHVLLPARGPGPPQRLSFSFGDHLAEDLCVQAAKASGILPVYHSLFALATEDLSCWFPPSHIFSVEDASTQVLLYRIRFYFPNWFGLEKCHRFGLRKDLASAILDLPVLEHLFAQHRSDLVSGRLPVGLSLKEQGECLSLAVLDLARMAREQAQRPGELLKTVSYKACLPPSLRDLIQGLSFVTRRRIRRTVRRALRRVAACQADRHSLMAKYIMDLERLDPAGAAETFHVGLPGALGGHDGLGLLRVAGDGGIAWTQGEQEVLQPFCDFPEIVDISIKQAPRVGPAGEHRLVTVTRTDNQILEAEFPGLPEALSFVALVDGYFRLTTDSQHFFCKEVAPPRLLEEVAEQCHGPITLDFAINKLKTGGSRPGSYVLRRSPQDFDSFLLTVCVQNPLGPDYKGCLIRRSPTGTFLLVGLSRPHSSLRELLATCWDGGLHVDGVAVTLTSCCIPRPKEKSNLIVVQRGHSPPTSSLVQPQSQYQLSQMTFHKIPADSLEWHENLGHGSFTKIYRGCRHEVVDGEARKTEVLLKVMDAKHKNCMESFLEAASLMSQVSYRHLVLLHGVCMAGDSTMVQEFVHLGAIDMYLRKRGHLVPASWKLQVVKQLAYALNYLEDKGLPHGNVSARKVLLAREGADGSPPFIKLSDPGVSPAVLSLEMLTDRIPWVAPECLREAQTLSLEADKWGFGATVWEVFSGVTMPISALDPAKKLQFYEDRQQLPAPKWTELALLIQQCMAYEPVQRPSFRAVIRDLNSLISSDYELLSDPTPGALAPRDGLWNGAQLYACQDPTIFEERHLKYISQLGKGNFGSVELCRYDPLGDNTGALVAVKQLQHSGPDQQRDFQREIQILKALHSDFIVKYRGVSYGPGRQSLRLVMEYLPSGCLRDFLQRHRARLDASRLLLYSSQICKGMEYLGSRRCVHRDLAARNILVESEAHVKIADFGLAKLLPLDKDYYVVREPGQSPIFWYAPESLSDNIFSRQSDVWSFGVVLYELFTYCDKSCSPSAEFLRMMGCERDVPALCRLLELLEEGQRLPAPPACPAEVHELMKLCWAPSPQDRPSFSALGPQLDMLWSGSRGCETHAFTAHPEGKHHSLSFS
As to the kind of experiment: biochemical.

Structures are written as SMILES. pKi: −log10 of the molar value.

`Cc1cc(Nc2cc(N3CCC3)nc(Sc3ccc(NC(=O)c4ccccc4Cl)nc3)n2)[nH]n1` [Compound 207] gave a pKi of 6.30 to 8.00.
